Reference: PMC7821884, “BRAF inhibition protects against hearing loss in mice” (Science Advances, 2020)

How the values were obtained:
[1] = system: P42 FVB mice; assay: Noise-induced hearing loss in adult mice (ABR, DPOAE, Ctbp2 puncta, pERK)
[2] = system: P42 FVB mice; assay: Cisplatin-induced hearing loss in adult mice (ABR, OHC counts, pERK)

CC(C)(C)c1nc(-c2cccc(NS(=O)(=O)c3c(F)cccc3F)c2F)c(-c2ccnc(N)n2)s1 [dabrafenib]
mean reduction of ABR threshold shift, treatment after noise ([1]; 60 mg/kg twice daily oral at 24, 48, 72 hours after noise, 16 kHz): 21.0 dB
average protection, ABR threshold shift ([1]; 100 mg/kg oral 45 min before and 24, 48 hours after noise (100 dB, 8-16 kHz, 2 hours), three frequencies, day 14): 16.8 dB
DPOAE threshold shifts at 8 and 16 kHz ([1]; 100 mg/kg pretreatment): significant protection
threshold shift, body weight, behavior without noise exposure ([1]; drug-treated mice, no noise): no significant threshold shift, change in body weight, or general behavior
average reduction of ABR threshold shift ([2]; 100 mg/kg oral gavage 45 min before and 24, 48 hours after cisplatin 30 mg/kg i.p., 16 and 32 kHz, day 21): 14.9 dB
threshold shift and body weight, drug alone ([2]; 100 mg/kg oral, no cisplatin): no significant threshold shift or change in body weight
